Values quoted from earlier work as cited in patent US20170209483A1, “ANTIBIOTIC ACTIVITY OF IRON SEQUESTERING POLYMERS” (UNIVERSITY OF KANSAS, priority 2014, published 2017).

Settings: reference chelator of the ligand competition method; cited from earlier work

sodium ethylene diamine tetraacetate [EDTA]
Iron stability constant: 10^25
